In PubChem BioAssay AID925 (National Center for Advancing Translational Sciences (NCATS), 2007):
The list shows a part of the results, in another mix than the full data. The source made the active and inactive calls. Calls come from the whole dose curve; as a rule, active = well fitted activation curve with a large enough effect; inconclusive = small, poorly fitted or top-dose-only effect; inactive = flat fitted curve, though single readings scatter.

Experiment: qHTS Assay for Modulators of Hemoglobin Beta Chain Splicing; note: 0% is about no effect
Conditions: HBB splicing reporter cell assay, EGFP reporter with mutant IVS2-654 intron, normalised to 500 nM splice-correcting PNA; at 46.1 µM (top of the series)
Excerpt: NIH Chemical Genomics Center [NCGC]
NIH Molecular Libraries Screening Centers Network [MLSCN]
PI Name: Dr. Ryszard Kole
Modulation of Alternative Splicing as Therapy
Abnormal splicing is associated with a number of diseases, including cancer and genetic diseases such as cystic fibrosis, muscular dystrophy and beta-thalassemia. Alteration of disease associated splicing patterns provides a promising target for treatment. […] Mutations in the second intron of the beta-globin gene at positions are clinically relevant and cause mis-splicing which results in an out of frame gene product.
EGFP-654 and 705 HeLa Cells as screen system.
HeLa cell lines were stably transfected with a construct in which the EGFP (enhanced green fluorescent protein) cDNA was interrupted by the second intron of the beta-globin gene (IVS2-654). The ISV2 intron contains mutations which cause mis-splicing of EGFP and premature termination of EGFP which results in a nonfluorescent protein product. […] Expression of the transgene was driven by the CMV promoter. […]
High Throughput Screening. […] Plates were read in the Acumen Explorer (TTP Labtech) using 488 nm laser excitation and 500-520 nm emission PMT filter in a 1 x […] capture mode. Fluorescnet Fluorescent objects ranging in size from […] were measured and the total peak GFP intensity for each well was used for data analysis. […]

Compound	activation
CN(CCCl)CCCl	inactive: -0.112%
O=[N+]([O-])C(Cl)(Cl)Cl	inactive: -0.127%
